# Measured affinities in a library of Ab-95 light chain variants

Source: Engelhart et al. 2022 (doi:10.1038/s41597-022-01779-4), MIT Lincoln Laboratory and A-Alpha Bio; data file from the FLAb repository.

Binding partner: SARS-CoV-2 spike HR2 peptide, sequence PDVDLGDISGINAS.

The variants keep the heavy chain, the linker and the frameworks of Ab-95 (scFv order VH, the linker GGGGSGGGGSGGGGS, VL).
VH: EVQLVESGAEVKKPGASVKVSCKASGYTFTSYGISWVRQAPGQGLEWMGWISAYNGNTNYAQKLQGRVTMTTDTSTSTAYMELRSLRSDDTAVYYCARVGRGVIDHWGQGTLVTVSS
VL: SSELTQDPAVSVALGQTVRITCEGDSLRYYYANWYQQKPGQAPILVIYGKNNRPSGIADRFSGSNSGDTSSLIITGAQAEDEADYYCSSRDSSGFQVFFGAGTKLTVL

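The starting antibody came from a phage panning campaign against this peptide. Library AAYL52 holds single substitutions and randomly drawn double and triple substitutions in the CDRs. The scFvs were displayed on barcoded MATa yeast, the peptide on MATalpha yeast. Mating (16 h, 30 °C) was followed by selection of diploids and sequencing of their barcodes. Scores were corrected for input abundance and mapped to Kd with protein pairs of known affinity run in the same pool. There are three technical replicates.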

The parent's light chain CDRs are EGDSLRYYYAN, GKNNRPS, SSRDSSGFQVF; each variant's own CDRs replace them letter for letter.
Scale: log10 of Kd in nM, estimated from mating counts; low values are strong binders.
Averages over replicates are reported, and they cover detected replicates only.
"ND" means that the variant was in the library but no mating with the target was seen in that replicate; the authors take this as a sign of poor binding, and no number exists.
As a blank, each scFv also met three strains without target: over library AAYL52, 28% of these pairings were detected, typically at 3.91 and seldom below 2.90. For each scFv, signals with the empty controls are counted beside the result, with their mean in brackets.

| CDR-L1 | CDR-L2 | CDR-L3 | log10 Kd, replicates | log10 Kd (nM), mean | signal with controls |
|---|---|---|---|---|---|
| EGNSLRYYYAC | GKNNRPS | SSRDSSGFNVF | 4.98 2.84 ND | 3.91 | 2/9 (3.27) |
| EGDSLRMYYAN | GHNNRPS | SSRASSGFQVF | 3.72 3.11 3.55 | 3.46 | 5/9 (3.64) |
| PGDSLRYYYAN | GKNNRHS | SSRDSSGFFVF | 5.05 ND 3.54 | 4.29 | 3/9 (3.99) |
| EGDSLRYYYAT | VKNNRPS | SSRDSMGFQVF | 5.00 ND 4.66 | 4.83 | 5/9 (4.94) |
| EGDSARYYYAY | GKNNRPS | SSRDSSGFQVF | ND 4.68 ND | 4.68 | 3/9 (4.44) |
| EQDSLRYYYAN | GKNNRVS | SSRDSSKFQVF | 3.40 ND ND | 3.40 | 1/9 (3.74) |
| CGWSLRYGYAN | GKNNRPS | SSRDSSGFQVF | 1.66 1.61 1.16 | 1.48 | 3/9 (4.08) |
| EGDSLYYFYAN | GKNNFPS | SSRDSSGFQVF | 3.71 3.98 4.48 | 4.06 | 1/9 (3.42) |
| EGDSLRYYYAN | GGNNRPS | SSRDSSTFQVF | ND ND 4.33 | 4.33 | 1/9 (2.53) |
| EGDSARYYCAN | GKNNRPS | SSRDSSGFVVF | 4.17 3.58 3.08 | 3.61 | 4/9 (3.89) |
| EGDSLRYYYAN | GKVNRPS | SFRDSSGFQHF | 4.34 4.77 ND | 4.55 | 2/9 (4.39) |
| EGDSLRYYYAN | GVNNRPW | SSRDSSGFHVF | 4.87 3.04 3.84 | 3.92 | 3/9 (3.99) |
| EGDHLRYTYAN | GKNNRPS | SSRDISGFQVF | 1.20 1.18 0.71 | 1.03 | 3/9 (4.07) |
| EGDSLRYYYAK | GKNNRPS | QSRDSIGFQVF | ND 5.44 ND | 5.44 | 3/9 (3.55) |
| EGDSLRYYYAN | CKNNRPN | SSPDSSGFQVF | 4.07 3.81 ND | 3.94 | 1/9 (2.77) |
| EGDSLRYYYAN | GKNNRPS | SSRDYSCFQVF | 4.27 2.98 3.35 | 3.53 | 3/9 (4.32) |
| EGDSLRYWYAN | GKNNRPS | SLRDSSGFQVF | 2.58 2.26 1.74 | 2.19 | 3/9 (4.18) |
| EGDSLRYYNRN | GKNNRPS | SSRDSFGFQVF | 4.06 ND ND | 4.06 | 3/9 (3.92) |
| EGDSSRYYYAN | FKNNRPS | SSRKSSGFQVF | ND 4.05 ND | 4.05 | 0/9 |
| EGDSLPRYYAY | GKNNRPS | SSRDSSGFQVF | 3.04 4.78 3.03 | 3.62 | 5/9 (3.75) |
| EGDSLRPYYAN | GKNNRPY | SSRDSSNFQVF | ND 3.94 ND | 3.94 | 2/9 (3.12) |
| EGGSLRYYYAN | GKNNRPS | SSRWSSGFQVK | ND ND ND | ND | 2/9 (4.84) |
| EGDSLRYYYAN | GKNNRTS | SSRGSDGFQVF | 4.79 2.98 3.19 | 3.65 | 3/9 (3.57) |
| EGDSLRYYYAN | GKNVRPS | SSRSSSGLQVF | 3.12 3.00 2.72 | 2.94 | 3/9 (3.94) |
| EGAYLRYYYAN | GKGNRPS | SSRDSSGFQVF | ND ND 2.18 | 2.18 | 2/9 (3.19) |
| EGDALRYYYAN | GKNNRPS | SSRHPSGFQVF | 3.16 3.65 3.65 | 3.48 | 4/9 (4.62) |
| EGDSLRYYYAN | GKNNRPS | SSRDGSGFHHF | ND 3.29 3.86 | 3.58 | 0/9 |
| EGKSHRYYNAN | GKNNRPS | SSRDSSGFQVF | 2.51 2.53 1.95 | 2.33 | 4/9 (4.21) |
| EGDSLRYYYAN | GLNNEPP | SSRDSSGFQVF | 4.64 ND ND | 4.64 | 4/9 (3.79) |
| EGDSLRYYYAN | GKNNRPR | NSRDSSGFQVF | 3.30 3.17 1.76 | 2.74 | 1/9 (3.67) |
| SGDSLRYYYAN | GKLNRPS | SSRDSSGGQVF | 3.98 4.37 4.58 | 4.31 | 3/9 (3.49) |
| EGDSLSYYYAN | GKNNRAS | SSRDSSGTQVF | 2.77 2.80 2.87 | 2.81 | 3/9 (3.88) |
| EGDSLRYYYAN | GLNNRPS | HSRDSSGDQVF | ND 3.68 ND | 3.68 | 2/9 (3.69) |
| YGDSLRYYYAN | GKNNIPS | SSRDSSGFQWF | ND ND ND | ND | 0/9 |
| EGPSLRYYYAN | GKNNRPS | SSRDSSGFQVF | 1.73 2.04 1.98 | 1.92 | 0/9 |
| WGDSLRYYYAE | GKNMRPS | SSRDSSGFQVF | 2.79 3.74 3.35 | 3.29 | 8/9 (3.95) |
| EGDSNRYYYAN | GRNNRPS | SSRDSEGFQVF | 3.63 3.49 2.07 | 3.06 | 1/9 (2.47) |
| EGDSMRYQYAN | GKNYRPS | SSRDSSGFQVF | 1.33 1.26 0.83 | 1.14 | 4/9 (4.79) |
| EGSSLRYYYAN | GKNNRTS | SRRDSSGFQVF | 3.10 ND ND | 3.10 | 5/9 (3.90) |
| EGDSLRYYYAN | GKNNRPS | SSRDCSGAQVF | 2.07 2.07 2.95 | 2.36 | 4/9 (4.19) |
| EGDSLRYLYAN | GKNNRPS | SPRDSSGFQVF | 2.85 3.35 2.36 | 2.85 | 7/9 (3.72) |
| EGPSLRYYYAN | GKLNEPS | SSRDSSGFQVF | 5.29 ND 3.25 | 4.27 | 4/9 (3.82) |
| EGDSLRYYYAN | GKNIRKS | YSRDSSGFQVF | 3.16 2.84 2.59 | 2.86 | 3/9 (3.14) |
| EGDSLRYYYAN | GKNYRPS | SSRDSSGSQVL | 2.77 2.64 2.34 | 2.58 | 2/9 (3.92) |
| EGDSLRYYYAN | GTNNRPS | SSRDSSGFQVF | 2.06 2.07 2.12 | 2.09 | 1/9 (4.34) |
| CGDSLRYYEAN | GKNRRPS | SSRDSSGFQVF | 1.98 2.07 1.58 | 1.88 | 3/9 (3.36) |
| EGDSLRYYYAN | GANNRPS | SSRDSSGFQVF | 2.01 2.33 1.94 | 2.09 | 4/9 (4.49) |
| EGDSLCNYYAN | GKNNRQS | SSRDSSGFQVF | 4.14 ND 3.00 | 3.57 | 1/9 (4.86) |

The opening 4 entries, copied out:

| CDR-L1 | CDR-L2 | CDR-L3 | log10 Kd, replicates | log10 Kd (nM), mean | signal with controls |
|---|---|---|---|---|---|
| EGNSLRYYYAC | GKNNRPS | SSRDSSGFNVF | 4.98 2.84 ND | 3.91 | 2/9 (3.27) |
| EGDSLRMYYAN | GHNNRPS | SSRASSGFQVF | 3.72 3.11 3.55 | 3.46 | 5/9 (3.64) |
| PGDSLRYYYAN | GKNNRHS | SSRDSSGFFVF | 5.05 ND 3.54 | 4.29 | 3/9 (3.99) |
| EGDSLRYYYAT | VKNNRPS | SSRDSMGFQVF | 5.00 ND 4.66 | 4.83 | 5/9 (4.94) |